# ChEMBL document CHEMBL6087474, “Discovery of an Efficacious RET PROTAC Degrader with Enhanced Antiproliferative Activity against Resistant Cancer Cells Harboring RET Solvent-Front Mutations” (J Med Chem, 2025)
# Columns and labels:
# BaF3 [1] = experiment: Inhibition of RET (unknown origin) phosphorylation in mouse BaF3 cells stably expressing wildtype KIF5B-RET fusion protein assessed as fold change in phosphorylated RET protein level at 11.1 nM measured after 6 hrs by Western blot analysis; format: cell-based; details: Homo sapiens
# BaF3 [2] = experiment: Inhibition of Shc (unknown origin) phosphorylation in mouse BaF3 cells stably expression KIF5B-RET G810R mutant assessed as fold change in phosphorylated Shc protein level at 11.1 nM measured after 6 hrs by Western blot analysis; format: cell-based; details: Homo sapiens
# BaF3 [3] = experiment: Inhibition of RET (unknown origin) phosphorylation in mouse BaF3 cells stably expressing KIF5B-RET-V804M mutant assessed as fold change in phosphorylated RET protein level at 300 nM measured after 6 hrs by Western blot analysis; format: cell-based; details: Homo sapiens
# BaF3 [4] = experiment: PROTAC activity at CRBN/KIF5B-RET (unknown origin) expressed in mouse BaF3 cells assessed as induction of RET degradation by measuring fold change at 30 nM preincubated with compound for 2 hrs followed by compound washout and measured after 0.5 hrs by Western blot analysis; format: cell-based; details: Homo sapiens
# BaF3 [5] = experiment: Inhibition of RET (unknown origin) phosphorylation in mouse BaF3 cells stably expressing KIF5B-RET-G810C mutant assessed as fold change in phosphorylated RET protein level at 100 nM measured after 6 hrs by Western blot analysis; format: cell-based; details: Homo sapiens
# BaF3 [6] = experiment: PROTAC activity at CRBN/KIF5B-RET (unknown origin) expressed in mouse BaF3 cells assessed as induction of RET degradation by measuring fold change at 30 nM preincubated with MG132 for 2 hrs followed by compound addition and measured after 6 hrs by Western blot analysis; format: cell-based; details: Homo sapiens
# BaF3 [7] = experiment: Inhibition of RET (unknown origin) phosphorylation in mouse BaF3 cells stably expressing KIF5B-RET-G810C mutant assessed as fold change in phosphorylated RET protein level at 33.3 nM measured after 6 hrs by Western blot analysis; format: cell-based; details: Homo sapiens
# BaF3 [8] = experiment: PROTAC activity at CRBN/KIF5B-RET (unknown origin) expressed in mouse BaF3 cells assessed as induction of RET degradation by measuring fold change at 30 nM measured after 0.5 hrs by Western blot analysis; format: cell-based; details: Homo sapiens
# BaF3 [9] = experiment: PROTAC activity at CRBN/KIF5B-RET (unknown origin) expressed in mouse BaF3 cells assessed as induction of RET degradation by measuring fold change at 30 nM preincubated with MLN4924 for 2 hrs followed by compound addition and measured after 6 hrs by Western blot analysis; format: cell-based; details: Homo sapiens
# BaF3 [10] = experiment: Inhibition of Shc (unknown origin) phosphorylation in mouse BaF3 cells stably expression KIF5B-RET G810C mutant assessed as fold change in phosphorylated Shc protein level at 100 nM measured after 6 hrs by Western blot analysis; format: cell-based; details: Homo sapiens
# BaF3 [11] = experiment: PROTAC activity at CRBN/KIF5B-RET (unknown origin) expressed in mouse BaF3 cells assessed as induction of RET degradation by measuring fold change at 30 nM measured after 1 hrs by Western blot analysis; format: cell-based; details: Homo sapiens
# BaF3 [12] = experiment: Inhibition of RET (unknown origin) phosphorylation in mouse BaF3 cells stably expressing KIF5B-RET-G810R mutant assessed as fold change in phosphorylated RET protein level at 33.3 nM measured after 6 hrs by Western blot analysis; format: cell-based; details: Homo sapiens
# BaF3 [13] = experiment: Inhibition of RET (unknown origin) phosphorylation in mouse BaF3 cells stably expressing KIF5B-RET-V804M mutant assessed as fold change in phosphorylated RET protein level at 100 nM measured after 6 hrs by Western blot analysis; format: cell-based; details: Homo sapiens
# BaF3 [14] = experiment: Inhibition of Shc (unknown origin) phosphorylation in mouse BaF3 cells stably expression wildtype KIF5B-RET assessed as fold change in phosphorylated Shc protein level at 33.3 nM measured after 6 hrs by Western blot analysis; format: cell-based; details: Homo sapiens
# BaF3 [15] = experiment: Inhibition of Shc (unknown origin) phosphorylation in mouse BaF3 cells stably expression KIF5B-RET V804M mutant assessed as fold change in phosphorylated Shc protein level at 11.1 nM measured after 6 hrs by Western blot analysis; format: cell-based; details: Homo sapiens
# BaF3 [16] = experiment: PROTAC activity at CRBN/KIF5B-RET (unknown origin) expressed in mouse BaF3 cells assessed as induction of RET degradation by measuring fold change at 30 nM measured after 8 hrs by Western blot analysis; format: cell-based; details: Homo sapiens
# BaF3 [17] = experiment: PROTAC activity at CRBN/KIF5B-RET (unknown origin) expressed in mouse BaF3 cells assessed as induction of RET degradation by measuring fold change at 30 nM measured after 2 hrs by Western blot analysis; format: cell-based; details: Homo sapiens
# BaF3 [18] = experiment: Inhibition of Shc (unknown origin) phosphorylation in mouse BaF3 cells stably expression KIF5B-RET G810R mutant assessed as fold change in phosphorylated Shc protein level at 100 nM measured after 6 hrs by Western blot analysis; format: cell-based; details: Homo sapiens
# BaF3 [19] = experiment: PROTAC activity at CRBN/KIF5B-RET (unknown origin) expressed in mouse BaF3 cells assessed as induction of RET degradation by measuring fold change at 30 nM preincubated with compound for 2 hrs followed by compound washout and measured after 12 hrs by Western blot analysis; format: cell-based; details: Homo sapiens
# [20] = tested on: Kinesin-1 heavy chain/ Tyrosine-protein kinase receptor RET (Homo sapiens), P07949+P33176 [G810C]; experiment: (§1) In vivo PROTAC activity at CRBN/KIF5B-RET-G810C mutant in male BALB/c mouse model implanted with mouse BaF3 cells stably expressing KIF5B-RET-G810C mutant assessed as induction of RET degradation by measuring fold change in RET protein level in tumor at 10 mg/kg, ip measured after 3 days by Western blotting analysis; format: functional, organism-based; details: time 3.0 day
# BaF3 [21] = experiment: Inhibition of Shc (unknown origin) phosphorylation in mouse BaF3 cells stably expression wildtype KIF5B-RET assessed as fold change in phosphorylated Shc protein level at 100 nM measured after 6 hrs by Western blot analysis; format: cell-based; details: Homo sapiens
# [22] = tested on: Kinesin-1 heavy chain/ Tyrosine-protein kinase receptor RET (Homo sapiens), P07949+P33176 [G810C]; experiment: as §1, with “at 30” for “at 10”; format: functional, organism-based; details: time 3.0 day
# BaF3 [23] = experiment: Inhibition of Shc (unknown origin) phosphorylation in mouse BaF3 cells stably expression wildtype KIF5B-RET assessed as fold change in phosphorylated Shc protein level at 11.1 nM measured after 6 hrs by Western blot analysis; format: cell-based; details: Homo sapiens
# BaF3 [24] = experiment: PROTAC activity at CRBN/KIF5B-RET (unknown origin) expressed in mouse BaF3 cells assessed as induction of RET degradation by measuring fold change at 30 nM preincubated with compound for 2 hrs followed by compound washout and measured after 1 hrs by Western blot analysis; format: cell-based; details: Homo sapiens
# BaF3 [25] = experiment: Inhibition of RET (unknown origin) phosphorylation in mouse BaF3 cells stably expressing KIF5B-RET-G810R mutant assessed as fold change in phosphorylated RET protein level at 300 nM measured after 6 hrs by Western blot analysis; format: cell-based; details: Homo sapiens
# BaF3 [26] = experiment: PROTAC activity at CRBN/KIF5B-RET (unknown origin) expressed in mouse BaF3 cells assessed as induction of RET degradation by measuring fold change at 10 nM measured after 6 hrs by Western blot analysis; format: cell-based; details: Homo sapiens
# BaF3 [27] = experiment: PROTAC activity at CRBN/KIF5B-RET (unknown origin) expressed in mouse BaF3 cells assessed as induction of RET degradation by measuring fold change at 0.4 nM measured after 6 hrs by Western blot analysis; format: cell-based; details: Homo sapiens
smiles,measurement,setting,value
COc1ccc(CN2C3CC2CN(c2ccc(-c4cc(-c5cnn(C6CCN(CCCCCC#Cc7cccc8c7CN(C7CCC(=O)NC7=O)C8=O)CC6)c5)cn5ncc(C#N)c45)cn2)C3)cn1 (configuration not stated),fold change (FC),BaF3 [1],0.5
same,fold change (FC),BaF3 [2],0.9
same,fold change (FC),BaF3 [3],0.1
same,fold change (FC),BaF3 [4],0.5
same,fold change (FC),BaF3 [5],0.4
same,fold change (FC),BaF3 [6],0.9
same,fold change (FC),BaF3 [7],0.5
same,fold change (FC),BaF3 [8],0.7
same,fold change (FC),BaF3 [9],0.7
same,fold change (FC),BaF3 [10],0.5
same,fold change (FC),BaF3 [11],0.5
same,fold change (FC),BaF3 [12],1
same,fold change (FC),BaF3 [13],0.1
same,fold change (FC),BaF3 [14],0.7
same,fold change (FC),BaF3 [15],1
same,fold change (FC),BaF3 [16],0.6
same,fold change (FC),BaF3 [17],0.4
same,fold change (FC),BaF3 [18],1
same,fold change (FC),BaF3 [19],0.9
same,fold change (FC),[20],0.5
same,fold change (FC),BaF3 [21],0.7
same,fold change (FC),[22],0.4
same,fold change (FC),BaF3 [23],0.9
same,fold change (FC),BaF3 [24],0.6
same,fold change (FC),BaF3 [25],0.6
same,fold change (FC),BaF3 [26],0.5
same,fold change (FC),BaF3 [27],0.8
